Experimental data from paper PMC6677016, “Biochemical and structural explorations of α-hydroxyacid oxidases reveal a four-electron oxidative decarboxylation reaction” (Acta Crystallographica. Section D, Structural Biology, 2019).

Target: T1, p-Hydroxymandelate oxidase (Hmo) Y128F mutant (Amycolatopsis orientalis, UniProt O52792, Y128F)
T1 sequence (O52792 1-357 Y128F): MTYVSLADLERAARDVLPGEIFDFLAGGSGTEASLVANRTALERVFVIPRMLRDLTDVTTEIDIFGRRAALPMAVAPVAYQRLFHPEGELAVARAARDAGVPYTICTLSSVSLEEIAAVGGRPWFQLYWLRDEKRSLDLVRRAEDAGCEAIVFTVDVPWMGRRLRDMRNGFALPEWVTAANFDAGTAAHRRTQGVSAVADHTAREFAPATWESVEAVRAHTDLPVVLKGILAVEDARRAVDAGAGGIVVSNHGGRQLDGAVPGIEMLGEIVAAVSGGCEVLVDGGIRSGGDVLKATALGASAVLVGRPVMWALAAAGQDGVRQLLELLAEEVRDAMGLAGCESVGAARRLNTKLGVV

For `O=C(O)Cc1ccccc1` [PA, phenylacetate], the “crystal structure (1.75 Å)” value was “The Y128F mutant liganded with phenylacetate, which is the product of the four-electron oxidation reaction”.
